Here are results for eleven compounds from publication PMC5864910, “Mutacin 1140 Lantibiotic Variants Are Efficacious Against Clostridium difficile Infection” (Frontiers in Microbiology, 2018).

SMILES strings stand for the structures.

Assay [1] relates to NMDA ion channel receptor. The assay can be described thus: Safety Screen 44: NMDA. It is filed as binding, human.
Assay [2] has as its system Mycobacterium phlei.
Assay [3] deals with Ca2+ Channel. The assay can be described thus: Safety Screen 44: Ca2+ Channel. It counts as binding, human.
Assay [4] deals with Kv Channel. The assay can be described thus: Safety Screen 44: Kv Channel. It is filed as binding, human.
Assay [5] concerns Nav Channel. Nature of the assay: Safety Screen 44: Nav Channel. It is filed as binding, human.
For assay [6], the system named is BZD (central). Nature of the assay: Safety Screen 44: BZD (central). It is filed as binding, human.
In assay [7] the test system is HepG2 human hepatocellular carcinoma cells. To be noted: HepG2 cytotoxicity.

Consider `C=C1NC(=O)[C@H](Cc2c[nH]c3ccccc23)NC(=O)[C@H](NC(=O)[C@H](CCCCN)NC(=O)[C@H](C)N)CSC[C@@H](C(=O)N[C@H]2C(=O)N3CCC[C@H]3C(=O)NCC(=O)N[C@H](C(=O)N[C@@H](C)C(=O)N[C@@H](CCCNC(=N)N)C(=O)N/C(=C\C)C(=O)NCC(=O)N[C@@H]3CSC[C@@H]4NC(=O)[C@H](Cc5ccc(O)cc5)NC(=O)[C@@H](CS/C=C\NC4=O)NC(=O)[C@H](CC(N)=O)NC(=O)[C@H](Cc4ccccc4)NC3=O)CS[C@H]2C)NC(=O)[C@H](CC(C)C)NC1=O` [F1A], for which, in assay [1], the “Cerep SafetyScreen 44 % Inhibition NMDA” value came out at 26%. This compound displayed a Minimum Inhibitory Concentration Mycobacterium phlei in assay [2] of 2 µg/mL. Further, in assay [3], the “Cerep SafetyScreen 44 % Inhibition Ca2+ Channel” value was -17%. In assay [4], the “Cerep SafetyScreen 44 % Inhibition Kv Channel” value is on record as -12%. In addition, the “Cerep SafetyScreen 44 % Inhibition Nav Channel” value in assay [5] is on record as -20%. Besides, the “Cerep SafetyScreen 44 % Inhibition BZD (central)” value in assay [6] was -4%. Besides, the HepG2 EC50 in assay [7] is 805 µg/mL.

As to `C=C1NC(=O)[C@H](Cc2c[nH]c3ccccc23)NC(=O)[C@H](NC(=O)[C@H](CCCCN)NC(=O)[C@@H](N)CC(N)=O)CSC[C@@H](C(=O)N[C@H]2C(=O)N3CCC[C@H]3C(=O)NCC(=O)N[C@H](C(=O)N[C@@H](C)C(=O)N[C@@H](CCCNC(=N)N)C(=O)N/C(=C\C)C(=O)NCC(=O)N[C@@H]3CSC[C@@H]4NC(=O)[C@H](Cc5ccc(O)cc5)NC(=O)[C@@H](CS/C=C\NC4=O)NC(=O)[C@H](CC(N)=O)NC(=O)[C@H](Cc4ccccc4)NC3=O)CS[C@H]2C)NC(=O)[C@H](CC(C)C)NC1=O` [F1N], the “Cerep SafetyScreen 44 % Inhibition NMDA” value in assay [1] came out at 3%. The same compound gave a Minimum Inhibitory Concentration Mycobacterium phlei in assay [2] of 8 µg/mL. In addition, the “Cerep SafetyScreen 44 % Inhibition Ca2+ Channel” value in assay [3] was -22%. Besides, the “Cerep SafetyScreen 44 % Inhibition Kv Channel” value in assay [4] is given as -4%. Also, in assay [5], the “Cerep SafetyScreen 44 % Inhibition Nav Channel” value is listed as 7%. Moreover, in assay [6], the “Cerep SafetyScreen 44 % Inhibition BZD (central)” value was -3%. This compound had a HepG2 EC50 in assay [7] of more than 1000 µg/mL.

With `C=C1NC(=O)[C@H](Cc2c[nH]c3ccccc23)NC(=O)[C@H](NC(=O)[C@H](CCCCN)NC(=O)[C@@H](N)CO)CSC[C@@H](C(=O)N[C@H]2C(=O)N3CCC[C@H]3C(=O)NCC(=O)N[C@H](C(=O)N[C@@H](C)C(=O)N[C@@H](CCCNC(=N)N)C(=O)N/C(=C\C)C(=O)NCC(=O)N[C@@H]3CSC[C@@H]4NC(=O)[C@H](Cc5ccc(O)cc5)NC(=O)[C@@H](CS/C=C\NC4=O)NC(=O)[C@H](CC(N)=O)NC(=O)[C@H](Cc4ccccc4)NC3=O)CS[C@H]2C)NC(=O)[C@H](CC(C)C)NC1=O` [F1S], in assay [1], the “Cerep SafetyScreen 44 % Inhibition NMDA” value was 9%. The compound also showed a Minimum Inhibitory Concentration Mycobacterium phlei in assay [2] of 4 µg/mL. Also, the “Cerep SafetyScreen 44 % Inhibition Ca2+ Channel” value in assay [3] was -18%. In addition, the “Cerep SafetyScreen 44 % Inhibition Kv Channel” value in assay [4] was -3%. Besides, the “Cerep SafetyScreen 44 % Inhibition Nav Channel” value in assay [5] is given as -8%. Besides, the “Cerep SafetyScreen 44 % Inhibition BZD (central)” value in assay [6] is listed as 1%. Further, in assay [7], the HepG2 EC50 was more than 1000 µg/mL.

As to `C=C1NC(=O)[C@H](Cc2c[nH]c3ccccc23)NC(=O)[C@H](NC(=O)[C@H](CCCCN)NC(=O)[C@@H](N)[C@@H](C)O)CSC[C@@H](C(=O)N[C@H]2C(=O)N3CCC[C@H]3C(=O)NCC(=O)N[C@H](C(=O)N[C@@H](C)C(=O)N[C@@H](CCCNC(=N)N)C(=O)N/C(=C\C)C(=O)NCC(=O)N[C@@H]3CSC[C@@H]4NC(=O)[C@H](Cc5ccc(O)cc5)NC(=O)[C@@H](CS/C=C\NC4=O)NC(=O)[C@H](CC(N)=O)NC(=O)[C@H](Cc4ccccc4)NC3=O)CS[C@H]2C)NC(=O)[C@H](CC(C)C)NC1=O` [F1T], in assay [1], the “Cerep SafetyScreen 44 % Inhibition NMDA” value came out at 12%. The compound further returned a Minimum Inhibitory Concentration Mycobacterium phlei in assay [2] of 4 µg/mL. In assay [3], the “Cerep SafetyScreen 44 % Inhibition Ca2+ Channel” value is recorded as -5%. Besides, the “Cerep SafetyScreen 44 % Inhibition Kv Channel” value in assay [4] was determined as 9%. Besides, in assay [5], the “Cerep SafetyScreen 44 % Inhibition Nav Channel” value was 19%. For the same compound, the “Cerep SafetyScreen 44 % Inhibition BZD (central)” value in assay [6] is -10%. In addition, the HepG2 EC50 in assay [7] turned out to be 790 µg/mL.

Take `C=C1NC(=O)[C@H](Cc2c[nH]c3ccccc23)NC(=O)[C@H](NC(=O)[C@H](CCCCN)NC(=O)[C@@H](N)Cc2ccc(O)cc2)CSC[C@@H](C(=O)N[C@H]2C(=O)N3CCC[C@H]3C(=O)NCC(=O)N[C@H](C(=O)N[C@@H](C)C(=O)N[C@@H](CCCNC(=N)N)C(=O)N/C(=C\C)C(=O)NCC(=O)N[C@@H]3CSC[C@@H]4NC(=O)[C@H](Cc5ccc(O)cc5)NC(=O)[C@@H](CS/C=C\NC4=O)NC(=O)[C@H](CC(N)=O)NC(=O)[C@H](Cc4ccccc4)NC3=O)CS[C@H]2C)NC(=O)[C@H](CC(C)C)NC1=O` [F1Y]: the “Cerep SafetyScreen 44 % Inhibition NMDA” value in assay [1] stood at 6%. In assay [2], this compound yielded a Minimum Inhibitory Concentration Mycobacterium phlei of 4 µg/mL. For the same compound, the “Cerep SafetyScreen 44 % Inhibition Ca2+ Channel” value in assay [3] is on record as -12%. Further, the “Cerep SafetyScreen 44 % Inhibition Kv Channel” value in assay [4] came to 0%. Moreover, the “Cerep SafetyScreen 44 % Inhibition Nav Channel” value in assay [5] was found to be 9%. Moreover, the “Cerep SafetyScreen 44 % Inhibition BZD (central)” value in assay [6] is -20%. In assay [7], this compound came in with a HepG2 EC50 of 523 µg/mL.

`C=C1NC(=O)[C@H](Cc2c[nH]c3ccccc23)NC(=O)[C@H](NC(=O)[C@H](CCC(=O)O)NC(=O)[C@@H](N)Cc2ccccc2)CSC[C@@H](C(=O)N[C@H]2C(=O)N3CCC[C@H]3C(=O)NCC(=O)N[C@H](C(=O)N[C@@H](C)C(=O)N[C@@H](CCCNC(=N)N)C(=O)N/C(=C\C)C(=O)NCC(=O)N[C@@H]3CSC[C@@H]4NC(=O)[C@H](Cc5ccc(O)cc5)NC(=O)[C@@H](CS/C=C\NC4=O)NC(=O)[C@H](CC(N)=O)NC(=O)[C@H](Cc4ccccc4)NC3=O)CS[C@H]2C)NC(=O)[C@H](CC(C)C)NC1=O` [K2E]: the “Cerep SafetyScreen 44 % Inhibition NMDA” value in assay [1] is on record as 0%. Also, the Minimum Inhibitory Concentration Mycobacterium phlei in assay [2] was 16 µg/mL. Further, the “Cerep SafetyScreen 44 % Inhibition Ca2+ Channel” value in assay [3] is reported as -17%. In addition, the “Cerep SafetyScreen 44 % Inhibition Kv Channel” value in assay [4] is recorded as -7%. For the same compound, in assay [5], the “Cerep SafetyScreen 44 % Inhibition Nav Channel” value is given as -10%. Besides, the “Cerep SafetyScreen 44 % Inhibition BZD (central)” value in assay [6] is reported as -37%. For the same compound, in assay [7], the HepG2 EC50 was more than 1000 µg/mL.

As for `C=C1NC(=O)[C@H](Cc2c[nH]c3ccccc23)NC(=O)[C@H](NC(=O)[C@@H](NC(=O)[C@@H](N)Cc2ccccc2)[C@@H](C)CC)CSC[C@@H](C(=O)N[C@H]2C(=O)N3CCC[C@H]3C(=O)NCC(=O)N[C@H](C(=O)N[C@@H](C)C(=O)N[C@@H](CCCNC(=N)N)C(=O)N/C(=C\C)C(=O)NCC(=O)N[C@@H]3CSC[C@@H]4NC(=O)[C@H](Cc5ccc(O)cc5)NC(=O)[C@@H](CS/C=C\NC4=O)NC(=O)[C@H](CC(N)=O)NC(=O)[C@H](Cc4ccccc4)NC3=O)CS[C@H]2C)NC(=O)[C@H](CC(C)C)NC1=O` [K2I], in assay [1], the “Cerep SafetyScreen 44 % Inhibition NMDA” value was 7%. The compound further registered a Minimum Inhibitory Concentration Mycobacterium phlei in assay [2] of 4 µg/mL. For the same compound, in assay [3], the “Cerep SafetyScreen 44 % Inhibition Ca2+ Channel” value was -18%. The “Cerep SafetyScreen 44 % Inhibition Kv Channel” value in assay [4] is -9%. Besides, in assay [5], the “Cerep SafetyScreen 44 % Inhibition Nav Channel” value was -10%. The “Cerep SafetyScreen 44 % Inhibition BZD (central)” value in assay [6] is -6%. Besides, the HepG2 EC50 in assay [7] was more than 1000 µg/mL.

With `C=C1NC(=O)[C@H](Cc2c[nH]c3ccccc23)NC(=O)[C@H](NC(=O)[C@H](CCC(N)=O)NC(=O)[C@@H](N)Cc2ccccc2)CSC[C@@H](C(=O)N[C@H]2C(=O)N3CCC[C@H]3C(=O)NCC(=O)N[C@H](C(=O)N[C@@H](C)C(=O)N[C@@H](CCCNC(=N)N)C(=O)N/C(=C\C)C(=O)NCC(=O)N[C@@H]3CSC[C@@H]4NC(=O)[C@H](Cc5ccc(O)cc5)NC(=O)[C@@H](CS/C=C\NC4=O)NC(=O)[C@H](CC(N)=O)NC(=O)[C@H](Cc4ccccc4)NC3=O)CS[C@H]2C)NC(=O)[C@H](CC(C)C)NC1=O` [K2Q], in assay [1], the “Cerep SafetyScreen 44 % Inhibition NMDA” value came to 17%. Further, in assay [2], the Minimum Inhibitory Concentration Mycobacterium phlei amounted to 4 µg/mL. Moreover, the “Cerep SafetyScreen 44 % Inhibition Ca2+ Channel” value in assay [3] is listed as 5%. Also, in assay [4], the “Cerep SafetyScreen 44 % Inhibition Kv Channel” value was 1%. Further, in assay [5], the “Cerep SafetyScreen 44 % Inhibition Nav Channel” value worked out at 18%. The “Cerep SafetyScreen 44 % Inhibition BZD (central)” value in assay [6] is listed as -23%. For the same compound, the HepG2 EC50 in assay [7] is more than 1000 µg/mL.

For the compound `C=C1NC(=O)[C@H](Cc2c[nH]c3ccccc23)NC(=O)[C@H](NC(=O)[C@H](CCCCN)NC(=O)[C@@H](N)Cc2ccccc2)CSC[C@@H](C(=O)N[C@H]2C(=O)N3CCC[C@H]3C(=O)NCC(=O)N[C@H](C(=O)N[C@@H](C)C(=O)N[C@@H](CC(=O)O)C(=O)N/C(=C\C)C(=O)NCC(=O)N[C@@H]3CSC[C@@H]4NC(=O)[C@H](Cc5ccc(O)cc5)NC(=O)[C@@H](CS/C=C\NC4=O)NC(=O)[C@H](CC(N)=O)NC(=O)[C@H](Cc4ccccc4)NC3=O)CS[C@H]2C)NC(=O)[C@H](CC(C)C)NC1=O` [R13D], the Minimum Inhibitory Concentration Mycobacterium phlei in assay [2] was 8 µg/mL.

`C/C=C(\NC(=O)[C@H](CCCNC(=N)N)NC(=O)[C@H](C)NC(=O)[C@@H]1CS[C@@H](C)[C@@H](NC(=O)[C@@H]2CSC[C@@H](NC(=O)[C@H](CCCCN)NC(=O)[C@@H](N)Cc3ccccc3)C(=O)N[C@@H](Cc3c[nH]c4ccccc34)C(=O)N[C@@H](C)C(=O)N[C@@H](CC(C)C)C(=O)N2)C(=O)N2CCC[C@H]2C(=O)NCC(=O)N1)C(=O)NCC(=O)N[C@@H]1CSC[C@@H]2NC(=O)[C@H](Cc3ccc(O)cc3)NC(=O)[C@@H](CS/C=C\NC2=O)NC(=O)[C@H](CC(N)=O)NC(=O)[C@H](Cc2ccccc2)NC1=O` [S5A] had a Minimum Inhibitory Concentration Mycobacterium phlei in assay [2] of 4 µg/mL. In assay [7], this compound gave a HepG2 EC50 of 171 µg/mL.

`C/C=C(\NC(=O)[C@H](CCCNC(=N)N)NC(=O)[C@H](C)NC(=O)[C@@H]1CS[C@@H](C)[C@@H](NC(=O)[C@@H]2CSC[C@@H](NC(=O)[C@H](CCCCN)NC(=O)[C@@H](N)Cc3ccccc3)C(=O)N[C@@H](Cc3c[nH]c4ccccc34)C(=O)N[C@@H](CCSC)C(=O)N[C@@H](CC(C)C)C(=O)N2)C(=O)N2CCC[C@H]2C(=O)NCC(=O)N1)C(=O)NCC(=O)N[C@@H]1CSC[C@@H]2NC(=O)[C@H](Cc3ccc(O)cc3)NC(=O)[C@@H](CS/C=C\NC2=O)NC(=O)[C@H](CC(N)=O)NC(=O)[C@H](Cc2ccccc2)NC1=O` [S5M] had a Minimum Inhibitory Concentration Mycobacterium phlei in assay [2] of 4 µg/mL. This compound also returned a HepG2 EC50 in assay [7] of 260 µg/mL.
